# Results taken from patent publication US20240018153A1, “BENZENESULFONAMIDE DERIVATIVES AND USES THEREOF” (2692372 ONTARIO, INC., priority 2020, published 2024).
# By UniProt entry, the sequences of proteins in these tests, tags left out. Residues count along the entry.
# UniProt Q06187, 2-659 limits assumed: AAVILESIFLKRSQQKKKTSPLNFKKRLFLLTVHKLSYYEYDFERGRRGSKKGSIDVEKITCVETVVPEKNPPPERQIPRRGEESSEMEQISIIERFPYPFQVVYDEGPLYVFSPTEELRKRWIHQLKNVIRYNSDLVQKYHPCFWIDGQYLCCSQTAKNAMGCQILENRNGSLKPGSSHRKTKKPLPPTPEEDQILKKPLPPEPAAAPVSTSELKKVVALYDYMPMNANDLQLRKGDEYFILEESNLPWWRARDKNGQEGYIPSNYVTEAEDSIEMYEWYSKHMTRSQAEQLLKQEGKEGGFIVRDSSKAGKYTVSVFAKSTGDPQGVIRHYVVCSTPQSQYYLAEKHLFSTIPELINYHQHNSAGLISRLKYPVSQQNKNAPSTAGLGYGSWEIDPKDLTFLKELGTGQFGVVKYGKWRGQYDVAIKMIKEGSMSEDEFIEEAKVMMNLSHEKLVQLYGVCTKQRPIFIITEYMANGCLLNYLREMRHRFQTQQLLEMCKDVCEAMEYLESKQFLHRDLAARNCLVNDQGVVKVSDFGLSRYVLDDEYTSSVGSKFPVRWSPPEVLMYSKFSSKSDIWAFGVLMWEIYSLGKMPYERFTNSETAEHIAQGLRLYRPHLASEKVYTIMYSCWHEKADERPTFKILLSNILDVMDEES
# UniProt P51813, whole entry: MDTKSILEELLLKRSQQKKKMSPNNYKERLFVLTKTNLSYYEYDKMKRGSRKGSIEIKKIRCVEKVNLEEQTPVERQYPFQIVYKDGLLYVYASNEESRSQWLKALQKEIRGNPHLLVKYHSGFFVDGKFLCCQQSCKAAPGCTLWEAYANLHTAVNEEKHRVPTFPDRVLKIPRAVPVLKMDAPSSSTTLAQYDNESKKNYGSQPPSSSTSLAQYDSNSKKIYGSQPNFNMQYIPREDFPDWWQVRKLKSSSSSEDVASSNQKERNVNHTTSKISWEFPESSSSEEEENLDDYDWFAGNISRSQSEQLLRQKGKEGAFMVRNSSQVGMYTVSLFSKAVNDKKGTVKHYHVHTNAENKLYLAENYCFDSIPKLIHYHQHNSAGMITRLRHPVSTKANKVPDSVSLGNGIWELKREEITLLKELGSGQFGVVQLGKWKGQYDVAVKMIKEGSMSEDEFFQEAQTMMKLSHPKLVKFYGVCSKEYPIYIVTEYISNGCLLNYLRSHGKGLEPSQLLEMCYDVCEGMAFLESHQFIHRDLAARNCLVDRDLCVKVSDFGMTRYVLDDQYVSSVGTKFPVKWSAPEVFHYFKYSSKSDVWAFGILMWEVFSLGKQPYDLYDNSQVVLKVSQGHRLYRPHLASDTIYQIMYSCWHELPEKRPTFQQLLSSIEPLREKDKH
# UniProt P00533, 25-1210 limits assumed: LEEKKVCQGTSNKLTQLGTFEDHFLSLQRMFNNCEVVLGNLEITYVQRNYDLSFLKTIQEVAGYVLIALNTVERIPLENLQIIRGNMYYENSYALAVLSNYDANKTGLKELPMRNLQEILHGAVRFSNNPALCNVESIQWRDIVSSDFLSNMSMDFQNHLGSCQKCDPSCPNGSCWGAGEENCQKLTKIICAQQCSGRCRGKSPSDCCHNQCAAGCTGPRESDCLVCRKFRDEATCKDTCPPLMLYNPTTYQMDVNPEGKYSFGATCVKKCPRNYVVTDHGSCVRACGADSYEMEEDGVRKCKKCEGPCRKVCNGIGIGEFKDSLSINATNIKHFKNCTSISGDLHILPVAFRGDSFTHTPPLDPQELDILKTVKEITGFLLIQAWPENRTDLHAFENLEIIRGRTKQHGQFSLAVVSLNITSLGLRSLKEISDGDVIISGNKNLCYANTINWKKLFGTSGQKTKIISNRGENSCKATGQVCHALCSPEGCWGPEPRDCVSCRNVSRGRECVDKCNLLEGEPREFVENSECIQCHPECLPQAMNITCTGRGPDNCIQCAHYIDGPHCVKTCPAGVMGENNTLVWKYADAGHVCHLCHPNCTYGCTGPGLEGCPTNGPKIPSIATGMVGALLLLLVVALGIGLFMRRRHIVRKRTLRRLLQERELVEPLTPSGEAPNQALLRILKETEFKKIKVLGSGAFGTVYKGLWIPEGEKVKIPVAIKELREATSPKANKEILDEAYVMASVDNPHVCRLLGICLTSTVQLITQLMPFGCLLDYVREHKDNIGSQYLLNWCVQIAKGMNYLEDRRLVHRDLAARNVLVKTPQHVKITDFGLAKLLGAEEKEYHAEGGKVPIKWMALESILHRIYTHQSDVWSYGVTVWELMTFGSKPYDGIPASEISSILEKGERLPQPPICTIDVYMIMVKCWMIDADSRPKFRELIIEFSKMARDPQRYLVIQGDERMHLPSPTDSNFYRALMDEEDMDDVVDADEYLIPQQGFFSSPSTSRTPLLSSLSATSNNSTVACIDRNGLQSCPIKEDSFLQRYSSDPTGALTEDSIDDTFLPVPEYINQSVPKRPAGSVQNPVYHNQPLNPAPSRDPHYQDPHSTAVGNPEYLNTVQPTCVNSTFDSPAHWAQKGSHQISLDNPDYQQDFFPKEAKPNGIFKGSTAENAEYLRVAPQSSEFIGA
# UniProt P22455, 22-802 limits assumed: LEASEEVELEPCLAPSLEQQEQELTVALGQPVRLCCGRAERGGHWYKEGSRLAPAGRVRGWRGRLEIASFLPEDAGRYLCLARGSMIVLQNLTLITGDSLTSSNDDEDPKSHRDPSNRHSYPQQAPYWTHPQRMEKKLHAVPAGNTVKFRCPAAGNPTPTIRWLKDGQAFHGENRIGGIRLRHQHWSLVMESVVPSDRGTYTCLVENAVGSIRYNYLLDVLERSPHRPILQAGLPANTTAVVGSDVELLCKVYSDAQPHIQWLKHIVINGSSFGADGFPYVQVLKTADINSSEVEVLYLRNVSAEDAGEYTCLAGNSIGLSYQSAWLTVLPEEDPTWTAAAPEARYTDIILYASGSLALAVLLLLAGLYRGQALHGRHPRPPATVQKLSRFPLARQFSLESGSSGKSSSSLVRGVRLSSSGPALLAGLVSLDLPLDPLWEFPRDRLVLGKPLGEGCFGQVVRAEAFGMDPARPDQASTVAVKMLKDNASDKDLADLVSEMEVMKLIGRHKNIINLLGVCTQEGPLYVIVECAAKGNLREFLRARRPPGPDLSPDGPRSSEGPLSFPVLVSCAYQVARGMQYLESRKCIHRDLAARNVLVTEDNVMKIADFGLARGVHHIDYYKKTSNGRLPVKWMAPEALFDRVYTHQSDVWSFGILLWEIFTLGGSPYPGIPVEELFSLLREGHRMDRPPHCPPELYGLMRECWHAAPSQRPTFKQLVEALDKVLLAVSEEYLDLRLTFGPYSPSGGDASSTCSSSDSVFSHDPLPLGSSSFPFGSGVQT
# UniProt P52333, 781-1124 limits assumed: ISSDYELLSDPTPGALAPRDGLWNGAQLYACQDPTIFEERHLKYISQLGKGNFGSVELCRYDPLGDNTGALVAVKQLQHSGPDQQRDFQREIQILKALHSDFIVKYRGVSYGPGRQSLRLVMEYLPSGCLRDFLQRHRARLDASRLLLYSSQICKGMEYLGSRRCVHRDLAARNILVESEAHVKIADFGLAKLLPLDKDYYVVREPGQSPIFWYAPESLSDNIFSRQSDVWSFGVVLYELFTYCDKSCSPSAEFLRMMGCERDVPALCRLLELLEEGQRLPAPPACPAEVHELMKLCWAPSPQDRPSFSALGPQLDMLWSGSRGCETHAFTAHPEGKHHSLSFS
# Legend:
# BTK [1] = target: T1, BTK (Homo sapiens (Human), UniProt Q06187); experiment: Ramos RA1 cell lysis and immunoassay, phospho-BTK (Y223) inhibition; conditions: RAMOS cells, compound concentration 1 μM
# BMX = BMX (Homo sapiens (Human), UniProt P51813); experiment: HTRF KinEASE-TK kinase assay, BMX; format: biochemical
# Method: (§1) Kinase activity was monitored using a HTRF® KinEASE-TK kit from Cisbio (62TK0PEC). […] BMX was purchased from Promega. 0.333 ng/ul BMX (3.03 nM) was preincubated in the absence or presence of inhibitor at room temperature for 3 hours. The reaction with substrate was then initiated by adding biotinylated substrate and ATP. […] Reaction was terminated by adding 31.25 nM SA-XL665 and 100 fold diluted europium labelled antibody (Eu-Ab), diluted in 1× detection buffer that contained EDTA. After 60 min of incubation, the fluorescence emission was measured at 620 nm and 665 nm. The ratio of Em 665 nm to Em 620 nm was proportional to the amount of substrate phosphorylated by the kinase. […] The top 13 compounds together with known inhibitor Ibrutinib were further selected for dose response analysis where compounds were tested from final concentrations ranging from 24 μM to 25 uM.
# BTK [2] = target: T1, BTK; experiment: HTRF KinEASE-TK kinase assay, BTK; format: biochemical; conditions: 3 h preincubation
# EGFR [3] = target: T2, EGFR (Homo sapiens (Human), UniProt P00533); experiment: HTRF KinEASE-TK kinase assay, EGFR; format: biochemical; conditions: 3 h preincubation
# FGFR4 = FGFR4 (Homo sapiens (Human), UniProt P22455); experiment: HTRF KinEASE-TK kinase assay, FGFR4; format: biochemical
# Method: as §1, with “FGFR-4” for “BMX”, “FGFR4 (5.12” for “BMX (3.03”, “Reaction” for “The reaction”, “The reaction” for “Reaction”
# JAK3 = JAK3 (Homo sapiens (Human), UniProt P52333); experiment: HTRF KinEASE-TK kinase assay, JAK3; format: biochemical
# Method: as §1, with “JAK-3” for “BMX”, “0.0133” for “0.333”, “JAK3 (0.21” for “BMX (3.03”, “Reaction” for “The reaction”, “The reaction” for “Reaction”
# BTK [4] = target: T1, BTK; experiment: Ramos RA1 cell lysis and immunoassay, total BTK degradation; conditions: RAMOS cells
# EGFR [5] = target: T2, EGFR; experiment: A549 cell lysis and immunoassay, phospho-EGFR (Y1068) inhibition; conditions: A549 cells
# EGFR [6] = target: T2, EGFR; experiment: A549 cell lysis and immunoassay, total EGFR degradation; conditions: A549 cells
structure (smiles),measurement,setting,value
COCCOc1ccc(Nc2ncc(F)c(Nc3cccc(OCc4c(F)c(F)c(F)c(F)c4S(C)(=O)=O)c3)n2)cc1,"pBTK inhibition (RAMOS, 24 h)",BTK [1],X
same,BMX - 1 uM % remaining,"BMX; 1 uM compound, 3 h preincubation",C (<50%)
same,BMX - 10 uM % remaining,"BMX; 10 uM compound, 3 h preincubation",C (<50%)
same,IC50,"BMX; read-out: BMX IC50, dose response",< 1000 nM
same,"% BTK Remaining activity vs DMSO (1 μM, 3 h)",BTK [2]; 1 μM compound,C (<50%)
same,"% BTK Remaining activity vs DMSO (10 μM, 3 h)",BTK [2]; 10 μM compound,C (<50%)
same,"% EGFR Remaining activity vs DMSO (1 μM, 3 h)",EGFR [3]; 1 μM compound,A (>90%)
same,"% EGFR Remaining activity vs DMSO (10 μM, 3 h)",EGFR [3]; 10 μM compound,A (>90%)
same,"% FGFR4 Remaining activity vs DMSO (1 μM, 3 h)",FGFR4; 1 μM,B (50-90%)
same,"% FGFR4 Remaining activity vs DMSO (10 μM, 3 h)",FGFR4; 10 μM,B (50-90%)
same,"% JAK3 Remaining activity vs DMSO (1 μM, 3 h)",JAK3; 1 μM,B (50-90%)
same,"% JAK3 Remaining activity vs DMSO (10 μM, 3 h)",JAK3; 10 μM,C (<50%)
same,"% BTK degradation (RAMOS, 1 mM, 24 h)",BTK [4],Y
same,"pEGFR inhibition (A549, 1 μM, 24 h)",EGFR [5]; 1 μM,X
same,"pEGFR inhibition (A549, compound concentration, 24 h)",EGFR [5]; compound concentration 10 μM,X
same,"EGFR degradation (A549, 1 μM, 24 h)","EGFR [6]; 1 μM, 24 h",Y
same,"EGFR degradation (A549, compound concentration, 24 h)","EGFR [6]; compound concentration 10, 24 h",Y
